According to patent US11684571B2, “Methods of treating eosinophilic esophagitis” (Ellodi Pharmaceuticals, L.P., priority 2016, dated 2023):

Settings: in vivo
Method: Incidence of treatment-emergent Adverse Events (AEs), AEs leading to withdrawal, and Serious Adverse Events (SAEs) grouped by system organ class (SOC) were calculated as needed. Clinically significant abnormal values for clinical laboratory, AM cortisol (≤138 nmol/L), urinalysis, vital signs, and electrocardiogram (ECG) findings were measured as needed.
A total of 24 subjects were enrolled and randomized to one of six sequences to receive each of the three treatments over the three periods with a 7-day washout between doses.
C. […] These subjects continued fasting for at least 4 hours post-dose. • Subjects on the “Fed” treatment (Treatment B) began a high-fat breakfast 30 minutes after an overnight fast of at least 10 hours. […] Subjects were administered 6.0 mg of ATP-1011 immediately prior to bedtime (4 hours following the standard meal).
Randomization (Day 1): Subjects were randomized to one of six sequences (See Table 15) to receive a single dose of each treatment over three periods, with a 7-day washout between doses.
Treatment Periods: For each period, subjects were in-patients for 5 days (Days 0-4, Days 7-11, Days 14-18) with PK samples collected over 72 hours following each dose. Subjects were checked-in to the CRU the evening prior to each dosing (Day 0, 7, and 14) and received treatment according to the sequence on which they were randomized on Day 1. […]

- Cmax ratio of geometric LSmeans: 81.78%
SMILES: CCC(=O)O[C@]1(C(=O)SCF)[C@H](C)C[C@H]2[C@@H]3C[C@H](F)C4=CC(=O)C=C[C@]4(C)[C@@]3(F)[C@@H](O)C[C@@]21C [FP, Fluticasone propionate]
